Like-named read-outs stand apart in the source and are kept apart here.
How the values were obtained:
Test in all cases: biochemical
Assay type in all cases: binding
[1] = biological target: DRB1*0404 (Homo sapiens, UniProt P01903+P01911, A100R/A169T/F76Y/I96L/K127E/L162R/M171V/N62H/P40V/Q125Y/R42H/S133A/S149N/S66Y/V209L/W38E)
[2] = biological target: DRB1*1302 (Homo sapiens, UniProt P01903+P01911, A100E/A169T/K41T/L162R/M171V/P40S/Q125H/Q178H/Q39Y/Q99D/R42S/S66N/T262R/V115G/W38E/Y61H)
[3] = biological target: DRB1*1501 (Homo sapiens, UniProt P01903+P01911)
[4] = biological target: DRB1*0405 (Homo sapiens, UniProt P01903+P01911, A100R/A169T/D86S/F76Y/I96L/K127E/L162R/M171V/N62H/P40V/Q125Y/R42H/S133A/S149N/S66Y/V115G/V209L/W38E)
[5] = biological target: DRB1*0301 (Homo sapiens, UniProt P01903+P01911, A100K/A102G/A103R/A169T/F55Y/I96L/K41T/L162R/M171V/P40S/Q125H/Q178H/Q39Y/R42S/S66N/T106N/T262R/W38E/Y61H)
[6] = biological target: DRB1*0101 (Homo sapiens, UniProt P01903+P01911, A100R/D57E/F55L/F60I/F76Y/I96L/L162R/M171V/P40L/Q125E/R42F/V115G/Y59C)
[7] = biological target: DRB1*0701 (Homo sapiens, UniProt P01903+P01911, A100R/A102G/A103Q/D57E/D86V/E43K/F76Y/K127E/L162R/M171V/P40G/Q125H/Q99D/R33Q/R42Y/R54Q/S133A/S66F/T210M/V115G/Y107V/Y59L/Y89S)
[8] = biological target: DRB1*0401 (Homo sapiens, UniProt P01903+P01911, A100K/A169T/F76Y/I96L/K127E/L162R/M171V/N62H/P40V/Q125Y/R42H/S133A/S149N/S66Y/V115G/V209L/W38E)
[9] = biological target: DRB1*0901 (Homo sapiens, UniProt P01903+P01911, A100R/A103E/D57H/D86V/F55Y/F60I/F76Y/I96F/K127E/L162R/M171V/P40D/Q125H/Q99R/R33Q/R42F/S133A/S66N/T210M/V115G/W38K/Y107V/Y59G/Y89S)
[10] = biological target: DRB1*0802 (Homo sapiens, UniProt P01903+P01911, A100R/A103L/A169T/F76Y/H45Y/I96F/K41T/L162R/M171V/P40S/Q125H/Q178H/Q39Y/Q99D/R218S/R42G/S66Y/V115G/W38E)
[11] = biological target: DRB1*1101 (Homo sapiens, UniProt P01903+P01911, A100R/A169T/A87E/I96F/K41T/L162R/M171V/P40S/Q125H/Q178H/Q39Y/Q99D/R42S/S66Y/T262R/V115G/W38E)
[12] = read-out: Binding Affinity (nM) DRB1*0404
[13] = read-out: Binding Affinity (nM) DRB1*1101
[14] = read-out: Binding Affinity (nM) DRB1*0802

**Q.** With `CC[C@H](C)[C@H](NC(=O)[C@H](C)NC(=O)CNC(=O)[C@@H](NC(=O)[C@H](CCC(=O)O)NC(=O)CN)[C@@H](C)CC)C(=O)N[C@@H](C)C(=O)N[C@@H](CC(C)C)C(=O)N[C@@H](CC(=O)O)C(=O)N[C@@H](Cc1ccccc1)C(=O)N[C@@H](CCCCN)C(=O)N1CCC[C@H]1C(=O)NCC(=O)N[C@H](C(=O)N[C@@H](CO)C(=O)O)[C@@H](C)O` [NS3 121-135] as the compound, how does the IC50 [1, 12] read?
**A.** > 20000 nM

**Q.** What about the IC50 ([2]; competitive inhibition of radiolabeled standard peptide, '-' distinct from ND, read-out: Binding Affinity (nM) DRB1*1302) of the same compound?
**A.** 2700 nM

**Q.** And the IC50 [3]?
**A.** 14.4 µM

**Q.** And the IC50 [4]?
**A.** 17500 nM

**Q.** What about the IC50 [5] of the same compound?
**A.** 0.0086 µM

**Q.** And the IC50 [6]?
**A.** 3.96 µM

**Q.** And the IC50 [7]?
**A.** 2300 nM

**Q.** And the IC50 [8]?
**A.** 7.86 µM

**Q.** And the IC50 ([9]; competitive inhibition of radiolabeled standard peptide, '-' distinct from ND, read-out: Binding Affinity (nM) DRB1*0901)?
**A.** 9790 nM

**Q.** And the IC50 [10]?
**A.** 3610 nM

**Q.** And the IC50 [11, 13]?
**A.** > 20000 nM

**Q.** With `CC[C@H](C)[C@H](NC(=O)[C@@H]1CCCN1C(=O)[C@H](CO)NC(=O)CNC(=O)[C@H](CO)NC(=O)[C@@H](NC(=O)CNC(=O)[C@@H]1CCCN1C(=O)[C@H](CCCCN)NC(=O)[C@H](Cc1ccccc1)NC(=O)[C@H](CC(=O)O)NC(=O)[C@H](CC(C)C)NC(=O)[C@H](C)NC(=O)[C@@H](NC(=O)[C@H](C)N)[C@@H](C)CC)[C@@H](C)O)C(=O)O` [NS3 125-139] as the compound, how does the IC50 [1] read?
**A.** 16300 nM

**Q.** What about the IC50 [2] of the same compound?
**A.** 5440 nM

**Q.** What about the IC50 [3] of the same compound?
**A.** 15.6 µM

**Q.** And the IC50 [4]?
**A.** 13100 nM

**Q.** And the IC50 [5]?
**A.** 0.047 µM

**Q.** And the IC50 [6]?
**A.** 3.33 µM

**Q.** What about the IC50 [7] of the same compound?
**A.** 2120 nM

**Q.** What about the IC50 [8] of the same compound?
**A.** 3.85 µM

**Q.** What about the IC50 [9] of the same compound?
**A.** 2490 nM

**Q.** And the IC50 [10, 14]?
**A.** > 20000 nM

**Q.** And the IC50 [11, 13]?
**A.** > 20000 nM

**Q.** With `CC(C)C[C@H](NC(=O)[C@H](CCCCN)NC(=O)[C@@H](NC(=O)[C@H](CCCCN)NC(=O)[C@H](CCC(N)=O)NC(=O)[C@H](Cc1ccc(O)cc1)NC(=O)[C@H](CCC(=O)O)NC(=O)[C@@H](NC(=O)[C@H](CC(=O)O)NC(=O)[C@H](Cc1ccccc1)NC(=O)[C@@H](NC(=O)[C@@H](N)CCCCN)[C@@H](C)O)[C@@H](C)O)[C@@H](C)O)C(=O)N[C@@H](CC(N)=O)C(=O)N[C@@H](CC(=O)O)C(=O)N[C@@H](Cc1c[nH]c2ccccc12)C(=O)O` [NS3 389-403] as the compound, how does the IC50 [1, 12] read?
**A.** > 20000 nM

**Q.** What about the IC50 [2] of the same compound?
**A.** 16400 nM

**Q.** And the IC50 [3]?
**A.** 6.12 µM

**Q.** And the IC50 [4]?
**A.** 15200 nM

**Q.** And the IC50 [5]?
**A.** 3.18 µM

**Q.** What about the IC50 [6] of the same compound?
**A.** 2.28 µM

**Q.** And the IC50 [7]?
**A.** 1560 nM

**Q.** What about the IC50 [8] of the same compound?
**A.** 11.7 µM

**Q.** What about the IC50 [9] of the same compound?
**A.** 15600 nM

**Q.** And the IC50 [10, 14]?
**A.** > 20000 nM

**Q.** And the IC50 [11]?
**A.** 676 nM

**Q.** For `CC[C@H](C)[C@H](NC(=O)[C@@H](NC(=O)[C@H](CC(=O)O)NC(=O)[C@H](CCSC)NC(=O)[C@@H](NC(=O)[C@@H](NC(=O)CNC(=O)[C@H](CCCCN)NC(=O)[C@@H]1CCCN1C(=O)[C@@H](NC(=O)[C@@H]1CCCN1C(=O)[C@H](CCCNC(=N)N)NC(=O)[C@H](CCC(N)=O)NC(=O)[C@@H](NC(=O)[C@H](CCCCN)NC(=O)[C@@H](NC(=O)[C@@H](N)C(C)C)C(C)C)C(C)C)[C@@H](C)O)[C@@H](C)O)C(C)C)[C@@H](C)CC)C(=O)O` [NS5 576-592], which IC50 [1] is on record?
**A.** 9190 nM

**Q.** And the IC50 ([2]; competitive inhibition of radiolabeled standard peptide, DRB1*1302, read-out: Binding Affinity (nM) DRB1*1302)?
**A.** 297 nM

**Q.** And the IC50 [3]?
**A.** 1.51 µM

**Q.** And the IC50 ([4]; read-out: Binding Affinity (nM) DRB1*0405)?
**A.** > 20000 nM

**Q.** What about the IC50 [5] of the same compound?
**A.** 5.25 µM

**Q.** And the IC50 [6]?
**A.** 1.33 µM

**Q.** What about the IC50 [7] of the same compound?
**A.** 4540 nM

**Q.** What about the IC50 [8] of the same compound?
**A.** 3.78 µM

**Q.** What about the IC50 ([9]; competitive inhibition of radiolabeled standard peptide, DRB1*0901, read-out: Binding Affinity (nM) DRB1*0901) of the same compound?
**A.** 13000 nM

**Q.** What about the IC50 [10] of the same compound?
**A.** 1170 nM

**Q.** What about the IC50 [11] of the same compound?
**A.** 1210 nM

**Q.** Which IC50 [1] does the source give for `CC[C@H](C)[C@H](NC(=O)[C@H](CC(=O)O)NC(=O)[C@H](CCSC)NC(=O)[C@@H](NC(=O)[C@@H](NC(=O)CNC(=O)[C@H](CCCCN)NC(=O)[C@@H]1CCCN1C(=O)[C@@H](NC(=O)[C@@H]1CCCN1)[C@@H](C)O)[C@@H](C)O)C(C)C)C(=O)N[C@H](C(=O)N[C@@H](CO)C(=O)N[C@@H](CCCNC(=N)N)C(=O)N[C@@H](CCCCN)C(=O)N[C@@H](CC(=O)O)C(=O)N[C@@H](CCC(N)=O)C(=O)N[C@@H](CCCNC(=N)N)C(=O)O)[C@@H](C)CC` [NS5 582-598] here?
**A.** 9770 nM

**Q.** What about the IC50 [2] of the same compound?
**A.** 1640 nM

**Q.** And the IC50 [3]?
**A.** 4.68 µM

**Q.** And the IC50 [4]?
**A.** 807 nM

**Q.** What about the IC50 [5] of the same compound?
**A.** 1.17 µM

**Q.** What about the IC50 [6] of the same compound?
**A.** 0.312 µM

**Q.** And the IC50 ([7]; read-out: Binding Affinity (nM) DRB1*0701)?
**A.** > 20000 nM

**Q.** And the IC50 [8]?
**A.** 0.16 µM

**Q.** And the IC50 [9]?
**A.** 5860 nM

**Q.** And the IC50 [10]?
**A.** 1840 nM

**Q.** And the IC50 [11]?
**A.** 106 nM

— PMC3794980, “Identification of Conserved and HLA Promiscuous DENV3 T-Cell Epitopes” (PLoS Neglected Tropical Diseases, 2013)
